Literature values, collected in patent publication US6703045B2, “Composition and method for maintaining blood glucose level” (Council of Scientific & Industrial Research, priority 2001, dated 2004).

Test system: human serum proteins

Cc1cnc(C(=O)NCCc2ccc(S(=O)(=O)NC(=O)NC3CCCCC3)cc2)cn1 [Glipizide, 1-cyclohexyl-3-[[p-[2-(5-methylpyrazinecarboxamido)ethyl]phenyl]sulfonyl] urea]
binding to human serum proteins: extensively bound
